This note sets out measurements from patent publication US20250270173A1, “PYRIDINE DERIVATIVES FOR TREATING PSYCHIATRIC DISORDERS” (GILGAMESH PHARMACEUTICALS, INC., priority 2022, published 2025).

Amino acid sequences for entries named in this document (tags omitted). Residues count along the entry.
UniProt P28335, 33-458 limits assumed: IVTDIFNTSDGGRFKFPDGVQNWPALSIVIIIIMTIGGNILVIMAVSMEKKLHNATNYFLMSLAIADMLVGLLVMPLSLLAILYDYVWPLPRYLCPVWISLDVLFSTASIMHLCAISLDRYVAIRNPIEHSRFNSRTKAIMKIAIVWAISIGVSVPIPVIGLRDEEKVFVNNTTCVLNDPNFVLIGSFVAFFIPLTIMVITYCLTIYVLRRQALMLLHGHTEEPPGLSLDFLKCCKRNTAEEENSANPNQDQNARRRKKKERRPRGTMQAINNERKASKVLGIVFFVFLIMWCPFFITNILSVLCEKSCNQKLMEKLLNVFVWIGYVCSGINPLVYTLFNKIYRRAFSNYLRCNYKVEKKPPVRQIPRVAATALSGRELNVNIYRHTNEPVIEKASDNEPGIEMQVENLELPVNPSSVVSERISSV

Usually EC50 stands for the concentration needed to bring the measured effect to its halfway point.

The experiment has as its target human 5-HT2C receptor (Homo sapiens (Human), UniProt P28335). The experiment in a line: FLIPR Ca2+ flux functional assay at 5-HT2C (Eurofins DiscoverX). Format: cell-based. Particulars: for 5-HT2C % Act @ Max Conc.: at max concentration; for EC50: read-out: 5-HT2C EC50. Background: Calcium assays in cells follow changes in intracellular calcium, usually with a dye or a luminescent sensor.

On to `COc1cc(CCCCC(F)(F)F)c(OC)cc1CCN`, for which the “5-HT2C % Act @ Max Conc.” value came out at 82.10% and the EC50 was 6.41 nM.

On to `COc1cc(CCCCF)c(OC)cc1CCN`, for which the “5-HT2C % Act @ Max Conc.” value turned out to be 99.28% and the EC50 is 0.662 nM.
